Literature values, collected in article PMC4508061, “Selectivity Profiling and Biological Activity of Novel β-Carbolines as Potent and Selective DYRK1 Kinase Inhibitors” (PLoS ONE, 2015).

Chains of the proteins cited; added tags and fusions are not shown. Lines headed by an entry give the natural chain unless they say otherwise; changes in a name come on top.
UniProt P49760, whole entry: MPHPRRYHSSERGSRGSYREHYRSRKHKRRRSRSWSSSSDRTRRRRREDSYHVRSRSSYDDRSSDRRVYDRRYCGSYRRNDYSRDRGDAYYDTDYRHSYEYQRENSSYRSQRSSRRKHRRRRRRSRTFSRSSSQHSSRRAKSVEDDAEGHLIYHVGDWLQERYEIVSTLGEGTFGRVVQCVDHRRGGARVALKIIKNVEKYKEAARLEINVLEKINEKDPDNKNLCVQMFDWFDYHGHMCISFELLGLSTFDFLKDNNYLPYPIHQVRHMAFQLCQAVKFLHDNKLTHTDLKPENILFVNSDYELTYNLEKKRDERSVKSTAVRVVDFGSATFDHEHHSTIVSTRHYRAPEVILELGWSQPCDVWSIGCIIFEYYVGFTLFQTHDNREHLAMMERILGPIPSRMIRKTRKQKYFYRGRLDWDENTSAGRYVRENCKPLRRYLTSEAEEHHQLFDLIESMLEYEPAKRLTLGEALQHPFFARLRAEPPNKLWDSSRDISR
UniProt P49761: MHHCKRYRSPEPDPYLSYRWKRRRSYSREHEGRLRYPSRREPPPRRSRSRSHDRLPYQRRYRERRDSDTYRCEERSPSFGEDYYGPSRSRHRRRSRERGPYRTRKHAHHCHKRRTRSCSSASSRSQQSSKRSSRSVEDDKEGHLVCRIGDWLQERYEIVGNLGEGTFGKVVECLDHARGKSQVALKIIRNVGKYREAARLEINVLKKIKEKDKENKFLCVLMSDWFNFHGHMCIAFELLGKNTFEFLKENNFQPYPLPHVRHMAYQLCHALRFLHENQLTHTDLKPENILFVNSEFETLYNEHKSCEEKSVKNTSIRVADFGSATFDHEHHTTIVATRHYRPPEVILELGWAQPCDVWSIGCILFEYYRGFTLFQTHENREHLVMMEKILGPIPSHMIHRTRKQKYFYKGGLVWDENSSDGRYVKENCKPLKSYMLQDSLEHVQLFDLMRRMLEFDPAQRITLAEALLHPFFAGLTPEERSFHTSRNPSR
UniProt Q9Y463, whole entry: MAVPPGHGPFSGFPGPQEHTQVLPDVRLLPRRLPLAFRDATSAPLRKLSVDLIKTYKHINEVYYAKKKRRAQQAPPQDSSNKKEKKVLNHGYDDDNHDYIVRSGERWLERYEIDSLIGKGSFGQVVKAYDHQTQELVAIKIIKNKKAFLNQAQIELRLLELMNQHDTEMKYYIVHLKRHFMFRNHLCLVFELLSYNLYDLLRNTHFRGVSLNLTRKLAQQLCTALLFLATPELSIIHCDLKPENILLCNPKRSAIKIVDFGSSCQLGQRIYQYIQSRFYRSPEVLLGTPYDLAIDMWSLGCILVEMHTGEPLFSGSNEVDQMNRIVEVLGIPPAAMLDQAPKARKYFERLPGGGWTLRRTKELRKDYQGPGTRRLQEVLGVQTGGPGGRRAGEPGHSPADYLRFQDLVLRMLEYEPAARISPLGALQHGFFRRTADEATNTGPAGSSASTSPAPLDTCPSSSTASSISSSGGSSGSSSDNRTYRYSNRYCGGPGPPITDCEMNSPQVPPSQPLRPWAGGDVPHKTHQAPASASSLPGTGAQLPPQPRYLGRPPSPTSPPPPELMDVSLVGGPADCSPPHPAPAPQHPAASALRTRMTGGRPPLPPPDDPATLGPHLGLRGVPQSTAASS

Columns and labels:
Conditions in all cases: 10 μM; cited from earlier work
CLK2 = target: T1, CLK2 (Homo sapiens, UniProt P49760)
T1 construct: purchased ProQinase (Freiburg, Germany)

CLK3 = target: T2, CLK3 (Homo sapiens, UniProt P49761)
T2 construct: purchased ProQinase (Freiburg, Germany)

DYRK2 = target: T3, DYRK2 (Homo sapiens, UniProt Q92630)
T3 construct: purchased ProQinase (Freiburg, Germany)
T3 sequence (Q92630 1-601): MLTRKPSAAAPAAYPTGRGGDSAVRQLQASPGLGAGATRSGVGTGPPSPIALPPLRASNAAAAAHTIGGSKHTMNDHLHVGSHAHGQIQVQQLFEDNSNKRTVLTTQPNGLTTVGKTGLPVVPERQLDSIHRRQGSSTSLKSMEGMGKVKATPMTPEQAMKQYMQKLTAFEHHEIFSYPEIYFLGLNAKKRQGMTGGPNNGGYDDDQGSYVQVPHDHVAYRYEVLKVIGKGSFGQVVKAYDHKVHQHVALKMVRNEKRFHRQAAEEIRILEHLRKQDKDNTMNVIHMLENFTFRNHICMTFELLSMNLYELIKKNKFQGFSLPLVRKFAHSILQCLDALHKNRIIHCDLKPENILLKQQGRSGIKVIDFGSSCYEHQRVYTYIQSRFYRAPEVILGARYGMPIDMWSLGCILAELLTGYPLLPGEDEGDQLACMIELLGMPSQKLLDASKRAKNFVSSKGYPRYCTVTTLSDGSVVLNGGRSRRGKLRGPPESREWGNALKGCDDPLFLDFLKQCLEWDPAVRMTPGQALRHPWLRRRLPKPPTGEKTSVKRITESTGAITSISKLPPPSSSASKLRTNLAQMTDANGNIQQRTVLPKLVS

DYRK1B = DYRK1B (Homo sapiens, UniProt Q9Y463); design: purchased ProQinase (Freiburg, Germany)

CN1C(=O)/C(=C/c2ccc3c(c2)OCO3)N=C1N [Leucett-amine B, Leucettamine B]
Residual activity (% of control) (CLK2): 10 % of control | Residual activity (% of control) (CLK3): 73 % of control | Residual activity (% of control) (DYRK2): 57 % of control | Residual activity (% of control) (DYRK1B): 11 % of control
